Experimental data as given in US20150328157A1, “APPLICATION OF SILICON DIOXIDE AEROGEL AS NANO-DRUG CARRYING SYSTEM IN PHARMACY” (GRADUATE SCHOOL AT SHENZHEN, TSINGHUA UNIVERSITY, priority 2012, published 2015).

Conditions: male, SD, rat, in vivo

CC(=O)O[C@H]1C(=O)[C@@]2(C)[C@H]([C@H](OC(=O)c3ccccc3)[C@]3(O)C[C@H](OC(=O)[C@H](O)[C@@H](NC(=O)c4ccccc4)c4ccccc4)C(C)=C1C3(C)C)[C@]1(OC(C)=O)CO[C@@H]1C[C@@H]2O [paclitaxel]
absolute bioavailability F: 2.89%
